Values of other authors in patent US20150231209A1, “STIMULATION OF OVARIAN FOLLICLE DEVELOPMENT AND OOCYTE MATURATION” (THE BOARD OF TRUSTEES OF THE LELAND STANFORD JUNIOR …, priority 2012, published 2015).

Conditions: cited from earlier work

hCG: glycoprotein of 244 amino acids, used as an LH substitute
half-life, in words (compared with the native hormone (FSH; LH)): longer half-life than LH

native FSH: dimeric glycoprotein hormone synthesized and secreted by gonadotropes in the anterior pituitary gland
half-life (in vivo): 3 to 4 h
